Values of other authors, collected in PMC10892093 (Pharmaceutics, 2024).
Read-outs that look alike come from different tables or passages of the source.

Conditions: in vivo, cited from earlier work

O=C1Nc2ccc(Cl)cc2C(c2ccccc2)=NC1O (centres unmarked) [oxazepam, Oxazepam]
S-/R-oxazepam glucuronide ratio (plasma): 3.5
S-/R-oxazepam glucuronide ratio (urine): 3.9
